{
  "source": "patent US8552041B2",
  "about": "“Therapeutic approaches for treating alzheimer disease and related disorders through a modulation of cell stress response” (Pharnext, priority 2008, dated 2013)",
  "system": "Human Brain Microvascular Endothelial Cells (HBMEC)",
  "assay": "Capillary network length in human Aβ1-42 intoxicated HBMEC on matrigel",
  "assay_type": "cell-based",
  "conditions": "1 hr pre-treatment, VEGF 10 nM, FIG. 3A",
  "description": "Human brain microvascular endothelial cerebral cells (HBMEC, ScienCell Ref: 1000, frozen at passage 10) were rapidly thawed in a waterbath at +37° C. The supernatant was immediately put in 9 ml Dulbecco's modified Eagle's medium (DMEM; Pan Biotech ref: P04-03600) containing 10% of foetal calf serum (FCS; GIBCO ref 10270-106). […]\nThe following conditions were assessed: • Negative Control: medium alone+0.1% DMSO • Intoxication: amyloid-β1-42 (2.5 μM) for 18 h • Positive control: VEGF-165 (10 nM) (1 reference compound/culture) 1 hr before the Aβ1-42 (2.5 μM) addition for a 18 h incubation time. • Test compounds: Test compound I hr before the Aβ1-42 (2.5 μM) addition for a 18 h incubation time. Capillary Network Quantification\nPer well, 2 pictures with 4× lens were taken using InCell Analyzer™ 1000 (GE Healthcare) in light transmission. […] The total length of capillary network was assessed.\nAll values are expressed as mean±s.e.mean of the 3 cultures (n=6 per condition). […] Indeed, the amyloid toxicity was taken as the 100% and the test compound effect was calculated as a % of this amyloid toxicity. […]",
  "data": [
    {"substance": "VEGF", "values": [
      {"measurement": "Capillary network compared to amyloid intoxication", "value": "+78%"}
    ]}
  ]
}
